Compound activity from PubChem.
PABP FP inh = PABP-poly(A) binding inhibition | PABP-poly(A) RNA binding, fluorescence polarization | calls only at 35 µM | actives 1% (n = 290,000);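 further: calls also rest on retests at 20 µM and on dose response follow-up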
eIF4H FP inh = inhibitors of RNA binding by human eIF4H | inhibition, % at 35 µM | Q15056 | actives 0.94% (n = 290,000) | eIF4H fluorescence polarization binding assay;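 further: calls also rest on retests at 20 µM and on dose response follow-up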
DSG3 Ab inh = blocks pemphigus antibody binding to human desmoglein-3; DSG3-coupled beads, scFv-anti-DSG3-GFP binding, flow cytometry; stronger effect = lower value; P32926; binding (percent of control), % at 10 µM; actives 0.48% (n = 310,000);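 active means binding more than 3 SD below its plate's average and above zero; inconclusive means below that plate limit but binding exactly zero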;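 further: hits lower antibody fragment binding to DSG3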
UUG fidelity = modulators of yeast start codon fidelity, primary screen, whole organism, S. cerevisiae, single point, plate reader. S. cerevisiae UUG-firefly luciferase reporter, luminescence/redox ratio. activity score, % at 18.7 µM. hit rate 0.13% among 350,000;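 active = replicate mean at a twofold rise or more, about +100% in these data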;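 also: firefly luciferase made from a UUG start codon reports start codon fidelity; reporter light over untreated wells divided by growth signal over untreated wells; some hits fall short of that in this replicate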
PABP1 MLLE inh = blocks PAM2 peptide binding to the PABP1 MLLE domain; inhibition, % at 20 µM; actives 0.36% (n = 360,000); AID 588489; GST-MLLE / FITC-PAM2 fluorescence polarization; P11940; in the data active means inhibition above about 35%, passing the limit was not always enough
Large screens that a line does not name were inactive. Compounds with a hit are over-represented: about 1.5% of the library has one in this group of screens. Unless noted, how the calls were made is not given here.

COC(=O)/C=c1/s/c(=C(/C#N)C(=O)N2CCOCC2)n(-c2ccccc2)c1=O	none
Cc1ccc(/C=C(\C#N)C(=O)NCC2CCCO2)o1 (configuration not stated)	none
N#C/C(=C\c1cccnc1)C(=O)Nc1ccccc1[N+](=O)[O-]	PABP FP inh active, eIF4H FP inh 66
COC(=O)/C=c1/s/c(=C(\C#N)C(=O)NCc2ccco2)n(-c2ccc(C)cc2)c1=O	PABP FP inh active, eIF4H FP inh 101 (no result: DSG3 Ab inh)
Cc1ccccc1-n1c(C)cc(/C=C(\C#N)C(=O)NCC2CCCO2)c1C (configuration not stated)	PABP FP inh active, eIF4H FP inh 88
C[C@@H]1CN([C@H](C)CO)C(=O)Cc2cc(NS(=O)(=O)c3ccccc3)ccc2O[C@H]1CN(C)Cc1ccc2c(c1)OCO2	none (no result: PABP FP inh, eIF4H FP inh, DSG3 Ab inh, PABP1 MLLE inh)
O=C(O)C(O)c1ccco1 (configuration not stated)	PABP FP inh active, eIF4H FP inh 104
O=C(C[C@@H]1CC[C@H]2[C@@H](COC[C@H](O)CN2Cc2cccc(-c3ccncc3)c2)O1)N1CCN(c2ccccc2)CC1	none (no result: PABP FP inh, eIF4H FP inh, DSG3 Ab inh, PABP1 MLLE inh)
S=C(c1ccc(N2CCOCC2)cc1)N1CCOCC1	PABP1 MLLE inh 38
COc1cc(C(=S)N2CCN(c3ccccc3Cl)CC2)cc(O)c1O	PABP1 MLLE inh 42 (no result: UUG fidelity)
CCOc1cc(C(=S)N2CCOCC2)ccc1OC	PABP1 MLLE inh 56
COc1ccc(C(=S)N2CCCC2)cc1OC	none
COc1ccc(C(=S)N2CCN(c3ccccc3Cl)CC2)cc1OC	PABP1 MLLE inh 40
S=C(c1ccc(N2CCCC2)cc1)N1CCCCC1	none
COc1cc(C(=S)N2CCN(c3cccc(Cl)c3)CC2)ccc1O	none (no result: UUG fidelity)
O=C(NCC[C@@H]1CC[C@@H](NC(=O)c2cccnc2)[C@H](CO)O1)Nc1ccc(F)cc1	none (no result: PABP FP inh, eIF4H FP inh, DSG3 Ab inh, PABP1 MLLE inh)
C[C@H]1CN([C@@H](C)CO)C(=O)c2cc(NC(=O)Nc3ccccc3)ccc2O[C@H]1CN(C)S(=O)(=O)c1cccs1	none (no result: PABP FP inh, eIF4H FP inh, DSG3 Ab inh, PABP1 MLLE inh)
Cc1ccc(S(=O)(=O)Nc2ccc3c(c2)CC(=O)N([C@H](C)CO)C[C@H](C)[C@@H](CN(C)Cc2ccncc2)O3)cc1	none (no result: PABP FP inh, eIF4H FP inh, DSG3 Ab inh, PABP1 MLLE inh)
CC(CS(=O)(=O)c1ccc2c(c1)NC(=O)CS2)C(=O)N1CCN(c2cccc(Cl)c2)CC1 (configuration not stated)	PABP FP inh active, eIF4H FP inh 74
CC1Sc2ccc(S(=O)(=O)CCC(=O)N3CCN(c4cccc(Cl)c4)CC3)cc2NC1=O (configuration not stated)	none
CC(CS(=O)(=O)c1ccc2c(c1)NC(=O)CS2)C(=O)NCc1ccccc1Cl (configuration not stated)	PABP FP inh active
Cc1ccc(-n2nnnc2SCC(=O)c2c(N)n(CC(C)C)c(=O)n(C)c2=O)cc1	DSG3 Ab inh 84
CCCOc1cccc(-c2nn(-c3ccccc3)cc2/C=C(\C#N)C(=O)NCCCn2ccnc2)c1	PABP FP inh active, eIF4H FP inh inconclusive
N#C/C(=C/c1cn(-c2ccccc2)nc1-c1cccc(OCc2ccc(F)cc2)c1)C(=O)NCCCn1ccnc1	none (no result: UUG fidelity)
CN1CCN(C(=O)C[C@H]2C[C@H]3c4cc(NC(=O)C5CCOCC5)ccc4O[C@H]3[C@H](CO)O2)CC1	none (no result: PABP FP inh, eIF4H FP inh, DSG3 Ab inh, PABP1 MLLE inh)
CC(Cc1ccccc1)NC(=S)CN1CCCC1=S (configuration not stated)	eIF4H FP inh 53 (no result: UUG fidelity)
O=C(C[C@@H]1CC[C@@H]2[C@H](COC[C@H](O)CN2C(=O)c2ccccc2)O1)Nc1nccs1	none (no result: PABP FP inh, eIF4H FP inh, DSG3 Ab inh, PABP1 MLLE inh)
C[C@H]1CN([C@@H](C)CO)S(=O)(=O)c2ccc(-c3ccccc3)cc2O[C@H]1CN(C)Cc1ccccn1	none (no result: PABP FP inh, eIF4H FP inh, DSG3 Ab inh, PABP1 MLLE inh)
COC(=O)COc1ccc(/C=N/NS(=O)(=O)c2ccccc2)cc1	none
NC(=O)COc1ccc(/C=N/NS(=O)(=O)c2ccccc2)cc1	PABP FP inh active (no result: UUG fidelity)
Cc1ccc(C)n1NC(=O)c1cccs1	DSG3 Ab inh 83 (no result: UUG fidelity)
COc1ccccc1N1C(=O)N(C(C)=O)C2C1Nc1ccccc1N2C (configuration not stated)	PABP FP inh active, eIF4H FP inh 78
COc1ccccc1N1C(=O)c2ccccc2NC1c1ccncc1 (configuration not stated)	none
O=C(Cc1ccncc1)N1CC[C@@H]2[C@H](CO)Nc3ccc(-c4ccccc4F)cc3[C@@H]21	none (no result: PABP FP inh, eIF4H FP inh, DSG3 Ab inh, PABP1 MLLE inh)
N#Cc1c(N)sc(=S)c2c1CCCC2	PABP FP inh inconclusive, eIF4H FP inh inconclusive, PABP1 MLLE inh 48 (no result: UUG fidelity)
CCC1(C)Cc2c(C#N)c(N)sc(=S)c2CO1 (configuration not stated)	none
CS(=O)(=O)N1CCN(C(=O)C(Sc2ccccc2)c2ccccc2)CC1 (configuration not stated)	PABP1 MLLE inh 43
O=C(C(Sc1ccccc1)c1ccccc1)N1CCOCC1 (configuration not stated)	none
CCCn1cnc2sc(CC)cc2c1=O	eIF4H FP inh 58
O=C1C[C@@](C(=O)NCCN2CCOCC2)(c2ccc([N+](=O)[O-])cc2)[C@@H](c2ccc(CO)cc2I)N1CC12CC3CC(CC(C3)C1)C2	none (no result: PABP FP inh, eIF4H FP inh, DSG3 Ab inh, PABP1 MLLE inh)
C[C@@H]1CCCCO[C@@H](CN(C)S(=O)(=O)c2ccccc2)[C@H](C)CN([C@@H](C)CO)C(=O)c2cc(NS(=O)(=O)c3ccc(Cl)cc3)ccc2O1	none (no result: PABP FP inh, eIF4H FP inh, DSG3 Ab inh, PABP1 MLLE inh)
CC(=O)NC[C@@H]1[C@@H](c2ccc(-c3cccc(F)c3)cc2)[C@@H](CO)N1C(C)=O	none (no result: PABP FP inh, eIF4H FP inh, DSG3 Ab inh, PABP1 MLLE inh)
O=C(Cn1cc(C(=O)COc2ccccc2)c2ccccc21)NCc1ccco1	eIF4H FP inh 36
O=C(Cn1cc(C(=S)N2CCOCC2)c2ccccc21)N1CCOCC1	none (no result: DSG3 Ab inh)
O=C(COc1ccccc1)c1cn(CC(=O)N2CCOCC2)c2ccccc12	PABP FP inh active, eIF4H FP inh 95
COc1ccc(CN(C)C[C@H]2Oc3ccc(NS(=O)(=O)c4cn(C)cn4)cc3CC(=O)N([C@@H](C)CO)C[C@@H]2C)cc1	none (no result: PABP FP inh, eIF4H FP inh, DSG3 Ab inh, PABP1 MLLE inh)
CO[C@@H]1CN(C)C(=O)c2ccc(NC(=O)Nc3ccccc3)cc2OC[C@@H](C)N(C(=O)CC2CC2)C[C@@H]1C	none (no result: PABP FP inh, eIF4H FP inh, DSG3 Ab inh, PABP1 MLLE inh)
COCCn1c(C)cc(C(=O)COC(=O)c2cccc(O)c2)c1C	none (no result: UUG fidelity)
COCCn1c(C)cc(C(=O)COC(=O)c2cc3c(s2)CCC3)c1C	PABP FP inh active, eIF4H FP inh 91
O=C(Nc1ccc(-n2cnnn2)cc1)C(c1ccccc1)c1ccccc1	PABP FP inh active (no result: UUG fidelity)
O=C(Nc1ccccc1)c1ccc(-n2cnnn2)cc1	none
C[C@@H]1CN([C@@H](C)CO)C(=O)c2cc(NC(=O)C3CC3)ccc2O[C@@H]1CN(C)S(=O)(=O)c1ccc(F)cc1	none (no result: PABP FP inh, eIF4H FP inh, DSG3 Ab inh, PABP1 MLLE inh)
COc1ccc(C(=O)NC(=S)NC2CCSC2=O)cc1 (configuration not stated)	PABP1 MLLE inh 38
Cc1onc(-c2c(F)cccc2Cl)c1C(=O)NC(=S)NC1CCSC1=O (configuration not stated)	PABP1 MLLE inh 44
Cc1onc(-c2c(F)cccc2Cl)c1C(=O)NC(=S)Nc1c(C)n(C)n(-c2ccccc2)c1=O	PABP1 MLLE inh 45
Cc1onc(-c2c(F)cccc2Cl)c1C(=O)NC1CC1	none (no result: DSG3 Ab inh)
COC(=O)c1ccc(CNC(=O)Cn2cnnn2)cc1	DSG3 Ab inh 81
